In general, IC25 refers to the point of the concentration-response curve where the effect stands at 25%. By IC50 is commonly meant the concentration at which inhibition is half-maximal. Low values mean higher potency, high ones lower potency.

Sequences of proteins named here, by UniProt entry; tags and fusion partners are left off. A change or cut given only in a name is not applied to a line headed by its entry.
UniProt P10275: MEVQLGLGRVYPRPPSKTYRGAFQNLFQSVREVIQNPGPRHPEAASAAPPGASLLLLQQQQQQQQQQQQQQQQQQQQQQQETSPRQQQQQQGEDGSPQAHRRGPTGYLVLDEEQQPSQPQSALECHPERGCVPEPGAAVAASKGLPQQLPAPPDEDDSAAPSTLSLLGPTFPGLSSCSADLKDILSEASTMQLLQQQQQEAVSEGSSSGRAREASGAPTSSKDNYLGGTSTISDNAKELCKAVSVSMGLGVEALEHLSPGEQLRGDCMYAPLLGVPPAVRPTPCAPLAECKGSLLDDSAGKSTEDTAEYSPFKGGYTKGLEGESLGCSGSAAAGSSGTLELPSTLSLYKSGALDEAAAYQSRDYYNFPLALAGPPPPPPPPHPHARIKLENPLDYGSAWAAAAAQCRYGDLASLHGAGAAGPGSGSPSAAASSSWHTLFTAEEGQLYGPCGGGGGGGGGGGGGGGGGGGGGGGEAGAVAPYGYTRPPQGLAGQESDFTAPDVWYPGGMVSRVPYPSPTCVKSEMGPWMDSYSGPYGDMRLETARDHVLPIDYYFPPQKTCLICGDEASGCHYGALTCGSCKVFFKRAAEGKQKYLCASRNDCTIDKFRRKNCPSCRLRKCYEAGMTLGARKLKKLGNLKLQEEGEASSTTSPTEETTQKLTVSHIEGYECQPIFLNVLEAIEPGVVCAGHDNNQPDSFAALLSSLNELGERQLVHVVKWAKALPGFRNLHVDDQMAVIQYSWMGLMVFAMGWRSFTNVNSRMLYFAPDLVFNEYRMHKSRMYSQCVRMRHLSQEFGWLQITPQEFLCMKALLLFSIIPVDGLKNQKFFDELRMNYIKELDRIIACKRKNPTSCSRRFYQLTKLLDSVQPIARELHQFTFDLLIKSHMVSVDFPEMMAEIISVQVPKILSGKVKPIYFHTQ

The assay concerns the target human AR (Homo sapiens, UniProt P10275). The experiment in a line: AR-CALUX assay, antiandrogenic (AR antagonistic) activity, U2OS-luc cells. Also noted: host or cells: human U2OS-luc (osteoblastic osteosarcoma) cells. It is filed as cell-based.

With `O=[N+]([O-])c1ccc2ccc3ccc([N+](=O)[O-])c4ccc1c2c34` [1,8-DNPy, 1,8-dinitropyrene], the IC25 was 0.17 µM and half-maximal inhibition (IC50) was put at 0.72 µM.

The values are drawn from paper PMC9819389, “Antiandrogenic and Estrogenic Activity Evaluation of Oxygenated and Nitrated Polycyclic Aromatic Hydrocarbons Using Chemically Activated Luciferase Expression Assays” (International Journal of Environmental Research and Public …, 2022).
